Measured values taken from ChEMBL document CHEMBL1147808, “Protein tyrosine phosphatase 1B inhibitory activity of triterpenes isolated from Astilbe koreana” (Bioorg Med Chem Lett, 2006).

Molecular target: T1, Tyrosine-protein phosphatase non-receptor type 1 (Homo sapiens, UniProt P18031)
T1 sequence (P18031 whole entry): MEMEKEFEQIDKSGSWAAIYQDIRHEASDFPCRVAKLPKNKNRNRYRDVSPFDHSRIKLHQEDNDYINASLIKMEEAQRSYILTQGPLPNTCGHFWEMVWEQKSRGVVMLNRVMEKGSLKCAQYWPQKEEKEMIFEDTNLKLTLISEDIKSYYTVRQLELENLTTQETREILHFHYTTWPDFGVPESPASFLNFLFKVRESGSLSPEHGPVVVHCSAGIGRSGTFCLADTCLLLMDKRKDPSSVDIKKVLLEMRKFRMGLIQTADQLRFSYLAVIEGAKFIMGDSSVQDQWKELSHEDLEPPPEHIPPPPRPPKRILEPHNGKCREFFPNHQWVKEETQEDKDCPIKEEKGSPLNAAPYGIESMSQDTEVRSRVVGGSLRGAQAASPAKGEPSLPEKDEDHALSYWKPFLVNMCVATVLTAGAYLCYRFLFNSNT
Assay: Inhibition of human recombinant PTP1B

SMILES	IC50 [µM]
CC1(C)C2CC[C@]3(C)[C@H](C(=O)C=C4[C@@H]5C[C@@](C)(C(=O)O)CC[C@]5(C)CC[C@]43C)[C@@]2(C)CC[C@@H]1O (some centres not stated)	13.8
CC1(C)C2CC[C@]3(C)[C@H](C(=O)C=C4[C@H]5C[C@@](C)(C(=O)O)CC[C@]5(C)CC[C@]43C)[C@@]2(C)CC[C@@H]1O (some centres not stated)	15.6
